# Measurements as given in ChEMBL document CHEMBL5131393 (J Med Chem, 2021).
# Biological target: Human immunodeficiency virus type 1 reverse transcriptase (Human immunodeficiency virus 1) (UniProt Q72547)
# Assay: Potency index, ratio of test compound IC50 to NBD-14189 IC50 for inhibition of recombinant HIV-1 reverse transcriptase incubated for 2 hrs by colorimetric assay
row,Compound,Ratio IC50
1,Cc1sc(C(CO)NC(=O)c2[nH]c(-c3ccc4c(c3)OCO4)cc2CN)nc1S (centres undefined),20
2,NC[C@H](NC(=O)c1ccc(-c2ccc(C(F)(F)F)cn2)[nH]1)c1nc(CO)cs1,2
3,NCc1cc(-c2ccc3c(c2)OCO3)[nH]c1C(=O)NC(CO)c1nc(S)cs1 (centres undefined),26
4,NC[C@@H](NC(=O)c1ccc(-c2ccc(Cl)c(F)c2)[nH]1)c1ncc(CO)s1,9
